Some targets named below: P2Y purinoceptor 6 (Homo sapiens, UniProt Q15077); P2Y purinoceptor 2 (Homo sapiens, UniProt P41231); P2Y purinoceptor 4 (Homo sapiens, UniProt P51582).
Common to all, as to details: 1321-n1

Chains of the proteins cited; added tags and fusions are not shown. Lines headed by an entry give the natural chain unless they say otherwise; changes in a name come on top.
UniProt Q15077, whole entry, looked up: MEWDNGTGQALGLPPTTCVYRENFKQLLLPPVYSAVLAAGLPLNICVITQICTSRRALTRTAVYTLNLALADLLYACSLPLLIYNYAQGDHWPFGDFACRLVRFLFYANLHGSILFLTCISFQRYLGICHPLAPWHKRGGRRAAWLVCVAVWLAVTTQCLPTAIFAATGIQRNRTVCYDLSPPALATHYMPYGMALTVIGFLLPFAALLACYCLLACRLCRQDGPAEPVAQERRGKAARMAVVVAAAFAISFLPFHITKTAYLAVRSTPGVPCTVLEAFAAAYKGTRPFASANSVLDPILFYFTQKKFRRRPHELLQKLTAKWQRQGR
UniProt P41231, whole entry, looked up: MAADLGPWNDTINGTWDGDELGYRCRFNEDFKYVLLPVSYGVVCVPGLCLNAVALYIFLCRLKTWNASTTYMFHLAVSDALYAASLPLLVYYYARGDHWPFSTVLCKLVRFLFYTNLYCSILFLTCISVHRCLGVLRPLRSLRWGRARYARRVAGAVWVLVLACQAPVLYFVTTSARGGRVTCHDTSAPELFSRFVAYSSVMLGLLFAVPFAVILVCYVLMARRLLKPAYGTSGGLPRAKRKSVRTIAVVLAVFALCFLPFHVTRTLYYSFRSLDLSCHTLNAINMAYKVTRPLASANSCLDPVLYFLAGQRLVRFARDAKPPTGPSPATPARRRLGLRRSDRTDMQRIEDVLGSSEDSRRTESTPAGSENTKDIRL
UniProt P51582, whole entry, looked up: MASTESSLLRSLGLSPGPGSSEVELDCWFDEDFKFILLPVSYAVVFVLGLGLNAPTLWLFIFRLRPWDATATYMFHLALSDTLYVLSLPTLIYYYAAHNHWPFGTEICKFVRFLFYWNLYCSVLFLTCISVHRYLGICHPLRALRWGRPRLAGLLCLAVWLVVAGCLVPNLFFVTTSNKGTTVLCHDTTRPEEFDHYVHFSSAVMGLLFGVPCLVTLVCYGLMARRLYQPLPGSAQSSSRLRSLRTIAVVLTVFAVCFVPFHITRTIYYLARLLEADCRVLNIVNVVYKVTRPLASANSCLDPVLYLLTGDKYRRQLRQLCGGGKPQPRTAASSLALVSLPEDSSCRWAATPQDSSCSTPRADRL

Usually EC50 stands for the concentration that produces a half-maximal response. Higher therefore signals weaker potency. `CP(=O)(O)OP(=O)(O)OP(=O)(O)OP(=O)(O)OC[C@H]1O[C@@H](n2ccc(=O)[nH]c2=O)[C@H](O)[C@@H]1O`: the 50% effective concentration (EC50) at P2Y purinoceptor 6 is 8.16 µM; at P2Y purinoceptor 2, 4.18 µM; on P2Y purinoceptor 4, 2.53 µM.

The values above are taken from ChEMBL document CHEMBL1150771, “Synthesis and potency of novel uracil nucleotides and derivatives as P2Y2 and P2Y6 receptor agonists” (Bioorg Med Chem, 2008).
